Active and inactive are the calls of the source. The rule behind the calls is not given here.

The chains behind the UniProt entries cited, without tags or fusion partners. Where a name states a change or a piece, a line headed by the entry shows the natural chain unless it says otherwise.
UniProt P41145: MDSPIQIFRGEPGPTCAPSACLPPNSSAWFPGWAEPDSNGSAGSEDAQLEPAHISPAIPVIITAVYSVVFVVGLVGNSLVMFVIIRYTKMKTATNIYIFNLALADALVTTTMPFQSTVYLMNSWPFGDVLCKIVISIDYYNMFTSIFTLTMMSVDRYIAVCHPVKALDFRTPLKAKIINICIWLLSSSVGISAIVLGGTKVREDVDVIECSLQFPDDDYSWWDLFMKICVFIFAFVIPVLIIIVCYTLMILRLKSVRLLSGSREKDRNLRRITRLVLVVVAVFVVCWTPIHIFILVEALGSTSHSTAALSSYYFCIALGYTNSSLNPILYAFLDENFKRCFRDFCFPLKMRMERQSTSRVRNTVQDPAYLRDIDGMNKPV
UniProt P33535, whole entry: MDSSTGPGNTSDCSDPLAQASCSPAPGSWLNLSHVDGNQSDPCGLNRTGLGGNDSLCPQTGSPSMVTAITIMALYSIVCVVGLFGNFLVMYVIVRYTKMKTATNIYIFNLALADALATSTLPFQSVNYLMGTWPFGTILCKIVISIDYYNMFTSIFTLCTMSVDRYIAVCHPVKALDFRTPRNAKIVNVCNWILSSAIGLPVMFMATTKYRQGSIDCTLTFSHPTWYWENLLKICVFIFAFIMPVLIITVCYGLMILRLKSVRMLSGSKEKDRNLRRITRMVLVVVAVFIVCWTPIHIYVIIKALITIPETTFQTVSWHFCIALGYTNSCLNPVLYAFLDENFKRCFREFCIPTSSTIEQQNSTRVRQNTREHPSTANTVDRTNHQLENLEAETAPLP

In experiment [1] the target is Kappa-type opioid receptor (Homo sapiens, UniProt P41145). Description: Agonist activity at human kappa opioid receptor expressed in CHO cells assessed as stimulation of [35S]-GTPgammaS binding at 10 uM after 1 hr by liquid scintillation counting analysis relative to U69,593. The experiment is classed as functional, cell-based. Background: Binding of GTPγS marks nucleotide exchange on a G protein.

Experiment [2] deals with Mu-type opioid receptor (Rattus norvegicus) (UniProt P33535). The experiment in a line: Agonist activity at rat mu opioid receptor expressed in rat C6 cells assessed as stimulation of [35S]-GTPgammaS binding at 10 uM after 1 hr by liquid scintillation counting analysis relative to DAMGO. In kind it is functional, cell-based.

In the case of `Cc1cc(O)cc(C)c1C[C@H](N)C(=O)N1CCN(CCCc2ccccc2)CC1`, in experiment [1], the “%max” value was “inactive”.
On to `Cc1cc(O)cc(C)c1C[C@H](N)C(=O)N1CCN(CCCCc2ccccc2)CC1`, for which the %max in experiment [1] is 12%.
Still for that read-out and setting: the value for `Cc1cc(O)cc(C)c1C[C@H](N)C(=O)N1CCC(CCCc2ccccc2)CC1` was “inactive”.
Regarding `Cc1cc(O)cc(C)c1C[C@H](N)C(=O)N1CCC(Cc2ccccc2)CC1`, the “%max” value in experiment [2] and in experiment [1] was “inactive” in each case.
Turning to `Cc1cc(O)cc(C)c1C[C@H](N)C(=O)N1CCN(CCC(c2ccccc2)c2ccccc2)CC1`, the “%max” value in experiment [2] and in experiment [1] was “inactive” in each case.
Regarding `Cc1cc(O)cc(C)c1C[C@H](N)C(=O)N1CCC(Cc2ccccc2)c2ccccc21` (some centres undefined), the %max in experiment [2] was found to be 11%. Moreover, in experiment [1], the “%max” value is “inactive”.

These data come from ChEMBL document CHEMBL3102699, “Synthesis and evaluation of 4-substituted piperidines and piperazines as balanced affinity μ opioid receptor (MOR) agonist/δ opioid receptor (DOR) antagonist ligands” (Bioorg Med Chem Lett, 2014).
